# Antibody variant affinities, Ab-14 light chain, assay B

Reference: Li et al. 2023, doi:10.1038/s41467-023-39022-2. File: FLAb, binding data.

Target: peptide PDVDLGDISGINAS, taken from heptad repeat 2 (HR2) of SARS-CoV-2 spike.

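This is the validation round: designs drawn from the data on random variants, tested in the same kind of assay. Their group label is 14L_GP_Gen (GP: Gaussian process model; Gen: genetic algorithm; a sequence that several methods proposed may carry one label only). The assay is AlphaSeq: two haploid yeast populations carry antibody and antigen on their surface. Pairs that bind mate more often; barcode pairs of the diploids are counted by sequencing. Each replicate has its own calibration line, from reference interactions of the BCL2 family. Each pool was mated in six replicate cultures.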

Ab-14 is the parent antibody, in scFv form: VH, then a (GGGGS)3 linker, then VL. The heavy chain is unchanged in all variants.
VH: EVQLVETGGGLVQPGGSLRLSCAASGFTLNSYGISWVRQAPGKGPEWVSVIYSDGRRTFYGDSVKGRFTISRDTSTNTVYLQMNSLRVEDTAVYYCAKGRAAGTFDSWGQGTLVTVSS
VL: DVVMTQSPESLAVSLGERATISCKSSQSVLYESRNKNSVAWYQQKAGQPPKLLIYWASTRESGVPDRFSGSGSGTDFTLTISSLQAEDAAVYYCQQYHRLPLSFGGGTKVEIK

The parent's light chain CDRs are KSSQSVLYESRNKNSVA, WASTRES, QQYHRLPLS; each variant's own CDRs replace them letter for letter. Numbers give log10(Kd / nM), so 0 is 1 nM and 3 is 1 µM. Smaller is tighter. Three control strains display no target. For all light chain designs, 4% of the pairings with them gave a signal, with a median of 2.64 and one signal in twenty below 1.59, so weak values seen in few replicates may be background. The control count says in how many pairings with the empty strains this scFv gave a signal, with their mean in brackets. The authors' rule: three or more of the six replicates give a measured affinity, fewer mean a poor binder. Of ten entries with the parent sequence, four were seen in most replicates (averages 0.34 to 2.37), three in one and three in none, so single entries are noisy. The range of this assay differs from that of the first round, and the authors advise against merging the two.

CDR-L1	CDR-L2	CDR-L3	replicates, log10 nM	empty controls
KLSQGVLYESRNKNSVA	GASTRES	QQYHRLPLS	0.35 0.08 -0.16 -0.44 -0.31 0.02	0/18
KVQQSELYESRNKNSVA	NASYRES	QQYHRLPLS	0.38 0.04 -0.15 -0.43 0.07 -0.05	0/18
KIQQSVLYESRNKNSVA	NASTRMS	QQYHRLPLS	-0.45 -0.36 -0.54 -0.50 -0.64 -0.11	0/18
KLSQSVDYESRNKNSVA	NASTREV	QQYHRLPLS	0.28 0.15 0.21 0.29 -0.10 0.16	1/18 (1.83)
KVQQSVLYESRNKNSVA	GASTRES	QQYHRLPLS	-1.11 -1.81 -2.03 -2.14 -1.69 -1.91	0/18
HLSQSVPYESRNKNSVA	NASTRES	QQYHRLPLS	-0.24 -0.46 -0.56 -0.55 -0.34 -0.27	3/18 (2.86)
KVSQSVLYESRNKNSVA	HASTRES	QQYHRLPLS	0.16 0.09 -0.09 0.00 0.22 0.25	4/18 (3.22)
KLQQSVCYESRNKNSVA	NASTRMS	QQYHRLPLS	0.09 -0.11 0.00 -0.25 -0.05 -0.02	4/18 (3.13)
FLSQSDLYESRNKNSVA	EASTRES	QQYHRLPLS	0.39 0.26 0.11 -0.01 0.00 0.23	1/18 (2.35)
KLQQSFLYESRNKNSVA	NASYRES	QQYHRLPLS	-0.01 -0.17 -0.37 -0.40 -0.18 -0.04	0/18
KLQQSWEYESRNKNSVA	NASTRES	QQYHRLPLS	0.36 0.15 0.06 -0.11 0.24 0.02	0/18
KLPQSVLYESRNKNSVA	HASTREQ	QQYHRLPLS	-0.09 -0.32 -0.39 -0.52 -0.34 -0.14	2/18 (2.31)
KLSQMVLYESRNKNSVA	GASTRES	QQYHRLPLS	0.04 0.13 -0.14 -0.09 0.09 -0.03	1/18 (3.06)
KLMQSQLYESRMKNSVA	NASQRES	QQYHRLPLS	0.58 0.76 0.80 0.69 1.15 1.09	0/18
KLSQSDPYESRNKNSVA	EASTRES	QQYHRLPLS	-0.09 -0.04 -0.14 -0.06 -0.29 0.08	0/18
KLQQSVEYESRNKNSVA	HASTRLS	QQYHRLPLS	0.48 0.30 0.30 0.08 0.29 0.38	2/18 (3.21)
KLSQSVPYEQRNKNSVA	NASTRES	QQYHRLPLS	0.17 0.06 0.02 0.15 0.14 0.54	1/18 (2.41)
KLFQSVLYESRNKNSVA	NASTRES	QQYHRLPLS	0.72 0.60 0.77 0.71 0.77 1.24	1/18 (3.30)
KFSQSELYESRNKNSVA	NASTRMS	QQYHRLPLS	-0.14 -0.29 -0.30 -0.44 -0.34 -0.26	1/18 (2.71)
KVSQSYLYESRNKNAVA	NASQRES	QQYHRLPLS	-0.62 -0.54 -0.95 -0.71 -0.87 -0.53	0/18
KLSQSVLYESRDKNAVA	DASTRES	QQYHRLPLS	-0.03 -0.18 -0.26 -0.31 -0.46 -0.13	1/18 (2.75)
KLEQSMLYESRNKNSVA	NASTRMS	QQYHRLPLS	0.04 0.03 -0.06 -0.30 -0.10 0.06	1/18 (5.08)
KVSESWLYESRNKNSVA	NASTRES	QQYHRLPLS	0.02 0.05 -0.14 -0.09 -0.06 0.06	0/18
KLPQSVLYESRNKNSVA	EASTREQ	QQYHRLPLS	-0.23 -0.12 -0.08 -0.18 -0.09 -0.09	0/18
ILSQSVLYESRNKNSVA	NASTREQ	QQYHRLPLS	0.53 0.13 0.08 0.02 0.37 0.44	0/18
KLSQSVLYESRNKWSVA	NASQRES	QQYHRLPLS	-0.34 -0.29 -0.51 -0.58 -0.49 -0.35	1/18 (2.87)
KVSQSWLYESRNKNSVA	NASTREV	QQYHRLPLS	-0.24 -0.31 -0.04 -0.53 -0.38 -0.30	0/18
KLEQSWLYESRNKNSVA	NASTRES	QQYHRLPLS	-0.02 -0.05 -0.12 -0.15 -0.05 0.08	1/18 (2.38)
KLSGSTLYESRNKNSVA	NASTRES	QQYHRLPLS	-0.27 -0.25 -0.48 -0.35 -0.34 -0.15	1/18 (2.80)
KSEQSELYESRNKNSVA	NASQRES	QQYHRLPLS	0.30 0.32 0.24 0.04 0.31 0.30	1/18 (2.44)
KLSQSALYESRNKNSVA	EASTRES	QQYHRLPLS	1.15 1.15 -0.05 0.53 0.41 1.53	0/18
KLSQSNLYESRNKNSVA	GASTRES	QQYHRLPLS	0.20 0.28 -0.13 -0.21 0.17 0.01	2/18 (3.17)
VLSQSVLYESRNKNSVA	GASTRES	QQYHRLPLS	0.33 0.29 0.56 0.10 0.56 0.44	1/18 (3.50)
KLSQSVLYESRNKNSVA	EASTRMS	QQYHRLPLS	-0.18 -0.39 -0.28 -0.53 -0.20 -0.22	1/18 (2.20)
KLSQSVLYQSRNKNSVA	DASTRES	QQYHRLPLS	-0.14 -0.03 -0.30 -0.22 -0.33 -0.01	1/18 (2.67)
KVSQSWLYESRNKNNVA	DASTRES	QQYHRLPLS	-0.32 -0.48 -0.37 -0.57 -0.61 -0.44	1/18 (2.92)
KLDQSVLYESRNKNSVA	EASTRCS	QQYHRLPLS	0.18 -0.32 -0.65 -0.70 -0.28 -0.23	0/18
KVSQSQLYESRMKNSVA	NASQRES	QQYHRLPLS	0.35 0.12 0.05 0.07 0.02 0.31	2/18 (2.71)
KLPQSHLYESRNKNSVA	SASTRES	QQYHRLPLS	-0.01 -0.13 -0.16 -0.36 -0.25 -0.20	0/18
KISQSELYESRNKNSVA	NASTRMS	QQYHRLPLS	-0.51 -0.62 -0.50 -0.68 -0.35 -0.36	1/18 (1.60)
KLSQSMLYESRNKNSVA	QASQRES	QQYHRLPLS	-0.35 -0.50 -0.24 -0.63 -0.47 -0.51	1/18 (1.82)
KFSQSQLYESRNKNSVA	NASTRCS	QQYHRLPLS	-0.26 0.03 -0.11 -0.46 -0.30 -0.04	1/18 (2.08)
KLYQSQLYESRMKNSVA	NASTRES	QQYHRLPLS	0.32 0.14 -0.19 0.08 0.17 0.15	0/18
KLSFSELYESRNKNSVA	NASTRES	QQYHRLPLS	-0.06 -0.11 -0.20 -0.33 -0.09 -0.10	2/18 (2.84)
KLSQSVEYESRMKNSVA	NASTRES	QQYHRLPLS	0.03 0.15 0.03 -0.04 -0.07 0.13	1/18 (2.17)
KLSQSFLYEQRNKNSVA	NASQRES	QQYHRLPLS	0.06 -0.15 -0.06 -0.27 -0.21 -0.12	1/18 (1.90)
KFSQSVMYESRNKNSVA	NASTRES	QQYHRLPLS	-0.39 -0.33 -0.65 -0.41 0.07 -0.30	0/18
KLSQSVLYESRNKNSVA	NAQTRMS	QQYHRLPLS	0.09 -0.39 -0.22 -0.59 -0.25 -0.19	1/18 (2.32)
KLSQSDLYESRNKNSVA	NASQREQ	QQYHRLPLS	-0.12 -0.25 -0.26 -0.48 -0.11 -0.16	1/18 (2.62)

The opening 7 entries, copied out:

CDR-L1,CDR-L2,CDR-L3,"replicates, log10 nM",empty controls
KLSQGVLYESRNKNSVA,GASTRES,QQYHRLPLS,0.35 0.08 -0.16 -0.44 -0.31 0.02,0/18
KVQQSELYESRNKNSVA,NASYRES,QQYHRLPLS,0.38 0.04 -0.15 -0.43 0.07 -0.05,0/18
KIQQSVLYESRNKNSVA,NASTRMS,QQYHRLPLS,-0.45 -0.36 -0.54 -0.50 -0.64 -0.11,0/18
KLSQSVDYESRNKNSVA,NASTREV,QQYHRLPLS,0.28 0.15 0.21 0.29 -0.10 0.16,1/18 (1.83)
KVQQSVLYESRNKNSVA,GASTRES,QQYHRLPLS,-1.11 -1.81 -2.03 -2.14 -1.69 -1.91,0/18
HLSQSVPYESRNKNSVA,NASTRES,QQYHRLPLS,-0.24 -0.46 -0.56 -0.55 -0.34 -0.27,3/18 (2.86)
KVSQSVLYESRNKNSVA,HASTRES,QQYHRLPLS,0.16 0.09 -0.09 0.00 0.22 0.25,4/18 (3.22)